Bioassay records as filed in PubChem.
Shown are actives, neighbours in structure and some others; about 1.8% of the full set was active somewhere.
RAD52 inh: inhibitors of human RAD52 DNA annealing; P43351; recombinant RAD52 DNA annealing, FRET fluorescence; inhibition, % at 18.7 µM; 360,000 tested, 0.46% active; AID 651710;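 active means every replicate showing at least 50% inhibition; inconclusive means mean inhibition at least 50% but not in every replicate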
E-sel inducer: induces E-selectin expression in human endothelial cells; HUVEC E-selectin immunofluorescence imaging; normalized: neutral wells 0, TNF-alpha wells 100; P16581; AID 686992; 260,000 tested, 0.37% active; activation, % at 7.58 µM;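 active means mean E-selectin-positive cell signal at least 10% of the positive control, reached in at least 60% of replicates, without over 20% cell loss; inconclusive means no rule given, readout overlaps actives, possibly toxicity-flagged; inactive means the rest, including those meeting only one limit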
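System: HUVEC / Compound: single concentration / Signal: immunofluorescence imaging / Read-out: percent E-selectin-positive cells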
RAD54 branch: inhibitors of human RAD54 branch migration | Q92698 | RAD54 Holliday junction branch migration, FAM/BHQ fluorescence | inhibition, % at 10.4 µM | 360,000 tested, 0.14% active | AID 602329;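 active means mean normalized replicate activity at least 40 and at least half of replicates scoring 40 or more; inconclusive means only one of the two criteria met; inactive means mean below 40 and under half of replicates reaching 40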;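 further: inhibitors cause a drop in the FAM fluorescence signal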
Yeast UUG start: modulators of yeast start codon fidelity, primary screen, whole organism, S. cerevisiae, single point, plate reader | AID 602363, 2012 | actives 0.13% (n = 350,000) | activity score, % at 18.7 µM | S. cerevisiae UUG-firefly luciferase reporter, luminescence/redox ratio;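 active means replicate mean at a twofold rise or more, about +100% in these data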;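 further: firefly luciferase made from a UUG start codon reports start codon fidelity; reporter light over untreated wells divided by growth signal over untreated wells; some hits fall short of that in this replicate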
MLL AF4-AF9 inh: inhibitors of human MLL-AF4/AF9 interaction; P42568; AlphaScreen, biotin-AF4 peptide binding to FLAG-AF9; inhibition, % at 10 µM; 350,000 tested, 0.47% active;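 active means every replicate reaching a set inhibition limit, whatever the replicate mean, cut at about 25% in these data; inconclusive means mean inhibition reaches that limit but some replicates miss it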
SIRT5 inh: sirtuin-5 (human) deacylase inhibition; inhibition, % at 15 µM; Purified SirT5, succinyl-peptide AMC, trypsin-coupled fluorescence; Q9NXA8; 330,000 tested, 1.1% active; in the data active means inhibition above about 15%; inconclusive means no clear call, values can overlap the other calls
A number is an active result; - = inactive; ? = inconclusive; . = no result.

SMILES	RAD52 inh	E-sel inducer	RAD54 branch	Yeast UUG start	MLL AF4-AF9 inh	SIRT5 inh
COc1ccc(NC(=O)N(C)C[C@@H]2Oc3ccc(NC(=O)Cc4ccccc4)cc3CC(=O)N([C@H](C)CO)C[C@@H]2C)cc1	-	-	-	-	-	-
C[C@@H]1CN([C@@H](C)CO)C(=O)c2cc(C#CC3CC3)cnc2O[C@H]1CN(C)C(=O)c1ccc(F)cc1	-	-	-	-	-	-
Cc1cc(C)cc(NC(=O)Cn2nnc(C(=O)NCc3ccc(F)cc3)c2N)c1	-	.	-	-	-	16
COc1cccc(NC(=O)N2CC(=O)N3[C@H](C2)[C@H](c2ccc(C#CCC4CCCC4)cc2)[C@@H]3CO)c1	-	-	.	.	-	25
COc1cccc(NC(=O)N2CC(=O)N3[C@H](CO)[C@@H](c4ccc(C#CCC5CCCC5)cc4)[C@H]3C2)c1	-	-	.	.	-	22
COc1cccc(NC(=O)N2CC(=O)N3[C@H](CO)[C@@H](c4ccc(C#CCC5CCCC5)cc4)[C@@H]3C2)c1	-	-	.	.	-	24
COc1cccc(NC(=O)N2CC(=O)N3[C@@H](CO)[C@@H](c4ccc(C#CCC5CCCC5)cc4)[C@@H]3C2)c1	-	-	.	.	-	17
COc1ccc(NC(=O)N2CC(=O)N3[C@H](CO)[C@H](c4ccc(C#CCC5CCCC5)cc4)[C@@H]3C2)cc1	-	-	.	.	-	-
O=C(Nc1cc(F)ccc1F)N1CCCCN2[C@@H](CO)[C@@H](c3ccc(-c4ccncc4)cc3)[C@@H]2C1	-	-	-	-	.	-
Cc1ccc(S(=O)(=O)N[C@@H]2CC[C@@H](CC(=O)N3CCc4ccccc4C3)O[C@@H]2CO)cc1	-	-	-	.	-	-
COc1ccc(NC(=O)N2CC(=O)N3[C@@H](CO)[C@@H](c4ccc(C#CCC5CCCC5)cc4)[C@@H]3C2)cc1	-	-	.	.	-	-
COc1cccc(NC(=O)N2CC(=O)N3[C@H](CO)[C@H](c4ccc(C#CCC5CCCC5)cc4)[C@@H]3C2)c1	-	-	.	.	-	24
C[C@H]1CN([C@@H](C)CO)C(=O)c2cc(NC(=O)NC3CCCCC3)ccc2O[C@H]1CN(C)Cc1ccccc1	-	-	-	-	33	-
C[C@H](CO)N1C[C@H](C)[C@H](CN(C)C(=O)NC2CCCCC2)Oc2ccc(NC(=O)Nc3ccccc3)cc2C1=O	-	-	-	-	-	22
C[C@H]1CN([C@@H](C)CO)C(=O)c2cc(NC(=O)Nc3ccc4c(c3)OCO4)ccc2O[C@@H]1CN(C)C(=O)NC1CCCCC1	-	-	-	-	-	16
C[C@H]1CN([C@@H](C)CO)C(=O)c2cc(NC(=O)NC3CCCCC3)ccc2O[C@@H]1CN(C)Cc1ccccc1	-	-	-	-	-	-
COc1ccc(NC(=O)Nc2ccc3c(c2)CC(=O)N([C@H](C)CO)C[C@H](C)[C@H](CN(C)C(=O)Nc2ccc(F)cc2)O3)cc1	-	-	-	-	-	-
COc1ccc(CNC(=O)C[C@H]2CC[C@H](NC(=O)c3cccc(F)c3)[C@@H](CO)O2)cc1	-	-	-	-	-	-
CCc1ccccc1NC(=O)CNC(=O)CNC(=O)c1cccs1	-	.	-	-	-	53
COc1cccc(C(=O)Nc2cc(C)c3c(=O)oc4ccccc4c3n2)c1	-	?	-	-	43	-
CN(C)C=Nc1ncc2c3ccccc3n(CCN(C)C)c2c1C#N	.	.	88	-	.	.
CN(C)C=Nc1ncc2c3ccccc3n(Cc3ccccc3)c2c1C#N	.	.	-	-	.	.
O=C1NN(c2ccc(Cl)cc2)C(=O)/C1=C\c1ccc(-c2cccc(C(=O)O)c2)o1	-	.	.	.	-	28
O=C1NN(c2ccccc2)C(=O)/C1=C\c1ccc(-c2cc([N+](=O)[O-])ccc2O)o1	-	-	.	.	-	18
C[C@@H]1CN([C@H](C)CO)C(=O)c2cc(NS(C)(=O)=O)ccc2O[C@@H](C)CCCCO[C@H]1CN(C)Cc1ccc(C(=O)O)cc1	-	-	-	-	-	-
SMILES	RAD52 inh	E-sel inducer	RAD54 branch	Yeast UUG start	MLL AF4-AF9 inh	SIRT5 inh
CC1CCN(c2nc3c(=O)[nH]c(N)nc3n2[C@@H]2O[C@H](CO)[C@@H](O)[C@H]2O)CC1	-	69	-	-	-	-
O=C(COc1ccccc1)N/N=C/c1sc(=O)n(Cc2cccc(C(=O)O)c2)c1Cl	-	-	.	.	-	16
C[C@H]1CCCCO[C@H](CN(C)Cc2ccncc2)[C@@H](C)CN([C@@H](C)CO)C(=O)c2cc(NC(=O)Nc3ccc(C(F)(F)F)cc3)ccc2O1	57	-	-	-	-	-
C[C@H]1CCCCO[C@@H](CN(C)Cc2ccc(C(F)(F)F)cc2)[C@@H](C)CN([C@@H](C)CO)C(=O)c2cc(NC(=O)CCC(F)(F)F)ccc2O1	-	-	-	-	-	16
C[C@@H]1CCCCO[C@@H](CN(C)Cc2ccc(C(F)(F)F)cc2)[C@@H](C)CN([C@H](C)CO)C(=O)c2cc(NC(=O)CCC(F)(F)F)ccc2O1	-	-	-	-	-	-
C[C@@H]1CCCCO[C@@H](CN(C)Cc2ccncc2)[C@H](C)CN([C@H](C)CO)C(=O)c2cc(NC(=O)Nc3ccc(C(F)(F)F)cc3)ccc2O1	-	-	-	-	-	-
C[C@@H]1CN([C@@H](C)CO)C(=O)c2cc(NC(=O)c3ccncc3)ccc2O[C@@H](C)CCCCO[C@H]1CN(C)Cc1ccc(C(F)(F)F)cc1	-	-	-	.	-	-
C[C@@H]1CN([C@@H](C)CO)C(=O)c2cc(NC(=O)c3ccncc3)ccc2O[C@@H](C)CCCCO[C@@H]1CN(C)Cc1ccc(C(F)(F)F)cc1	-	-	-	-	-	16
O=C(Nc1ccc(C2=NCCN2)cc1)c1ccc(C(=O)Nc2ccc(C3=NCCN3)cc2)c([N+](=O)[O-])c1	104	-	.	.	38	-
CO[C@H]1CN(C)C(=O)c2ccc(NC(=O)C3CCC3)cc2OC[C@@H](C)N(C(=O)NC(C)C)C[C@@H]1C	-	-	-	-	-	-
CCN1CCN(CCCNC(=O)CCC(=O)N2CC(C)Oc3ccc(C)cc32)CC1 (stereo unspecified)	-	-	-	-	49	-
O=C(O)c1c2c(nc3ccccc13)/C(=C/c1cccc([N+](=O)[O-])c1)CCC2	-	.	-	-	-	97
CCN(CC)S(=O)(=O)c1ccc(N2CCOCC2)c(NC(=O)c2cccc3c(=O)c(C)c(-c4ccccc4)oc23)c1	-	-	-	-	-	-
COc1ccc(S(=O)(=O)N2CCOCC2)cc1NC(=O)c1cccc2c(=O)c(C)c(-c3ccccc3)oc12	-	-	-	-	-	27
CC(C)(O)C#Cc1cccc(-c2nc(C(=O)O)cc3c2[C@H](CCO)N(S(=O)C(C)(C)C)C3)c1 (stereo partly specified)	-	-	-	.	-	-
CCSc1ncc(Cl)c(C(=O)Nc2ccccc2C)n1	-	-	-	-	-	33
